This is an account of results in US20080234226A1, “Use Of Iron(III) Complex Compounds For The Preparation Of A Medicament For Oral Treatment Of Iron Deficiency States In Patients With Chronic Inflammatory Bowel Disease” (VIFOR (INTERNATIONAL) AG, priority 2005, published 2008).

This series relates to patients with chronic inflammatory bowel disease. The series can be described thus: Markers of oxidative stress (plasma, urine) before and after 14 days oral iron therapy. The note with it: mean (SEM).

On to iron(III)-polymaltose complex, for which, under “after 14 days oral treatment”, the P-cysteine is listed as 209 (11) μmol/l and the “P-vitamin C” value is 54.5 (5.5) μmol/l. For the same substance, for the setting “before treatment”, the P-cysteine was 211 (11) μmol/l and the “P-vitamin C” value is given as 61.3 (5.1) μmol/l.
